The numbers were not newly measured in PMC7754455 (Journal of Clinical Pharmacology, 2020), which cites them from elsewhere.

SMILES strings stand for the structures.

The conditions of data set [1]: preclinical findings; cited from earlier work.
The conditions of data set [2]: doses up to 30 mg, first week of daily administration, BET115521; cited from earlier work.

With `CCNC(=O)C[C@@H]1N=C(c2ccc(Cl)cc2)c2cc(OC)ccc2-n2c(C)nnc21` [Molibresib], in data set [1], the “preclinical embryofetal development and female fertility risk” value is “substantiated risk for adverse effects on embryofetal development and female fertility”. In addition, the tolerability in patients result in data set [2] is “tolerated”.
